The entries are a selection whose mix differs from that of the whole data set. Calls of active or inactive are those of the source. Rule as the data show it: active = activation mostly above about 9.5% (no sharp cut-off); inactive = mostly below about 7.6%.
These molecules were tested against 5-hydroxytryptamine receptor 5A (Homo sapiens) (UniProt P47898) (assay: HTR5A agonists in luminescence cell assay, primary screen, counter-screen for OPRM1-OPRD1 heterodimer agonist project, full-deck HTS (AID 504692;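 also: 0% = cells with vehicle only and 100% = reference agonist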)). Conditions: cell-based, at 9.3 µM, hits give high values.

By UniProt entry, the sequences of proteins in these tests, tags left out.
UniProt P47898, whole entry, looked up: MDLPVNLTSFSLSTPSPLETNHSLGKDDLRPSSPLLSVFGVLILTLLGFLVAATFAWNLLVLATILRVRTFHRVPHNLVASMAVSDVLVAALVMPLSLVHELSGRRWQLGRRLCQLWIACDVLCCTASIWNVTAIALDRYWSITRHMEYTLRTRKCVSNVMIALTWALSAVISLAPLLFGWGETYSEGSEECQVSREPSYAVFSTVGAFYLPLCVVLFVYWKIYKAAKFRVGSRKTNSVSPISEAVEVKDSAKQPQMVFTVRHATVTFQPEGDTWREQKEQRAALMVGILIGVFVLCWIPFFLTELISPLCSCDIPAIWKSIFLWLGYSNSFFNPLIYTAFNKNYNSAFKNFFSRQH

Row | SMILES | activation
1 | COc1ccc(N)c([N+](=O)[O-])c1[N+](=O)[O-] | inactive: 1.38%
2 | c1ccc2c(c1)nc(NCc1ccc3c(c1)OCO3)n2CCN1CCOCC1 | inactive: -7.4%
3 | Cc1nnc(NC(=O)Cn2cnc3c2c(=O)n(C)c(=O)n3C)s1 | inactive: -1.9%
4 | COC(=O)[C@H](CC(C)C)NC(=O)Cn1cnc2c(NCc3ccccc3)ncnc21 | inactive: 0.14%
5 | O=C(Cn1cnc2ccccc21)Nc1ccc2c(c1)OCCCO2 | inactive: 8.51%
6 | CCN(CC)CCn1c(=N)n(CC(=O)c2ccc(C)cc2)c2ccccc21 | inactive: -0.36%
7 | O=P(Nc1ccccn1)(c1ccc(Br)cc1)c1ccc(Br)cc1 | inactive: 3.97%
8 | CCC(=O)Nc1ccc(NC(=O)/C=C/c2ccc(Cl)cc2)cc1 | inactive: 0.24%
9 | NC(=O)Cn1c2[n+](c3ccccc31)CC(O)CS2 (stereo not given) | inactive: -1.47%
10 | O=C(CSc1nc2ccccc2n1CC(=O)N1CCCC1)N1CCN(C(=O)c2ccco2)CC1 | inactive: 1.21%
11 | CC(O)CNc1nc2ccccc2n1CC(=O)NCC(F)(F)F (stereo not given) | inactive: 0.16%
12 | C[C@H](NC(=O)N1CCn2c1nc1ccccc12)C(=O)NCCc1ccccc1 | inactive: -4.74%
13 | CCN(CC)CCn1c(NCc2ccccn2)nc2ccccc21 | inactive: 2.48%
14 | Cc1ccc(C(C(=O)NC2CCCCC2)N(Cc2ccco2)C(=O)Cn2cnc3ccccc32)cc1 (stereo not given) | inactive: 1.77%
15 | CCN(CC)CCn1c(N)nc2ccccc21 | inactive: -5.09%
16 | Cn1c(=O)n(CC(=O)Nc2cccnc2)c2ccccc21 | inactive: 3.62%
17 | N=c1n(CCN2CCCC2)c2ccccc2n1CC(O)c1ccco1 (stereo not given) | inactive: -0.64%
18 | O=P(Nc1nc2ccccc2s1)(c1ccccc1)c1ccccc1 | inactive: -0.12%
19 | Cn1c(=O)c2c(ncn2CC(=O)Nc2nc(-c3ccc(F)c(F)c3)cs2)n(C)c1=O | inactive: -2.29%
20 | CC(C)N(C(=O)Cn1c(SCC(=O)NC2CC2)nc2ccccc21)C(C)C | inactive: 1.15%
21 | Cn1c(=O)c2c(ncn2CC(=O)N2CCOCC2)n(C)c1=O | inactive: 8.93%
22 | Cc1cc2ncn(C3CC(=O)N(Cc4ccc(N5CCCC5=O)cc4)C3=O)c2cc1C (stereo not given) | inactive: 1.63%
23 | C[C@H]1OP(=O)(Oc2ccccc2)[C@H](O)[C@H](O)[C@H]1N=[N+]=[N-] (stereo not given in full) | inactive: -2.2%

Row | SMILES | activation
24 | COc1ccccc1OCCSc1nc2ccccc2n1CC(N)=O | inactive: 3.1%
25 | CCN(CC)CCn1c(NS(=O)(=O)c2ccc(Cl)cc2)nc2ccccc21 | inactive: 1.69%
26 | COc1ccc(OC)c(C(=O)CSc2nc3ccccc3n2CC(=O)NC(C)(C)C)c1 | inactive: 9.63%
27 | O=c1oc2ccccc2c2c1ncn2CCN1CCOCC1 | inactive: -1.55%
28 | Cc1ccc(Cn2nnnc2CN2CCC(n3nnc4ccccc43)CC2)cc1 | inactive: 6.52%
29 | O=C(Cn1c2[n+](c3ccc(C(F)(F)F)cc31)CCCCC2)Nc1ccccc1 | inactive: 1.15%
30 | Cc1nc2ccccc2n1CC(=O)NC1CCCC1 | inactive: -0.97%
31 | CCOCN(C(=O)Cn1c(CO)nc2ccccc21)c1c(C)cccc1CC | inactive: -4.66%
32 | Cc1ccc(C(=O)Cn2c(=N)n(CCN3CCOCC3)c3ccccc32)cc1 | inactive: 1.63%
33 | CSCC[C@H](NC(=O)N1CCn2c1nc1ccccc12)C(=O)NC1CC1 | inactive: 4.79%
34 | O=C(NC1CCCCC1)C(c1ccccc1)N(Cc1ccco1)C(=O)Cn1cnc2ccccc21 (stereo not given) | inactive: -1.56%
35 | CCOc1ccc(CNc2nc3ccccc3n2CCN2CCOCC2)cc1 | inactive: -2.3%
36 | CCN(CC)c1ccc(NC(=O)Cn2c(C(C)NC(=O)c3ccc(C)cc3)nc3ccccc32)cc1 (stereo not given) | inactive: -0.33%
37 | O=S(=O)(c1ccccc1)c1nnn2c1nc(NC1CCN(Cc3ccccc3)CC1)c1cc(Cl)ccc12 | inactive: -2.37%
38 | COc1ccc(Cc2nnc(NC(=O)Cn3cnc4c3c(=O)n(C)c(=O)n4C)s2)cc1OC | inactive: -1.31%
39 | CCCn1c(=O)c2c(nc3n2CCN3Cc2ccco2)n(C)c1=O | inactive: -0.02%
40 | CSCC[C@H](NC(=O)N1CCn2c1nc1ccccc12)C(=O)NCc1ccc2c(c1)OCO2 | inactive: 0.13%
41 | O=S(=O)(c1ccc(Cl)cc1)N1CCn2c1nc1ccccc12 | inactive: 6.1%
42 | CC(/C=N/NC(=O)Cn1cnc2ccccc21)=C\c1ccccc1 | inactive: 5.62%
43 | CCOC(=O)c1cccc(NC(=O)Cn2cnc3c2c(=O)n(C)c(=O)n3C)c1 | inactive: 1.52%
44 | CC(=O)NC(C)c1nc2ccccc2n1CC(=O)NC(C)CCc1ccccc1 (stereo not given) | inactive: -2.22%
45 | Cn1c(=O)c2c(nc(CN3CCN(C(c4ccccc4)c4ccccc4)CC3)n2CC(N)=O)n(C)c1=O | inactive: 3.88%

Source: PubChem BioAssay AID504692 (The Scripps Research Institute Molecular Screening Center, 2011)
